# Measurements as given in patent publication US20030203373A1 (priority 2002, published 2003).
# Where “and” joins values, the source holds several entries; their conditions need not be identical. Equal values may be shown once. Read-outs that look alike come from different tables or passages of the source.
# Molecular target: T1, ACE from pig kidney (Sus scrofa, UniProt F1RRW5)
# T1 construct: 1 mU ACE from pig kidney (EC 3.4.15.1 (Sigma)); purchased Sigma; host or cells: pig kidney (tissue-derived enzyme)
# T1 sequence (F1RRW5 34-1309): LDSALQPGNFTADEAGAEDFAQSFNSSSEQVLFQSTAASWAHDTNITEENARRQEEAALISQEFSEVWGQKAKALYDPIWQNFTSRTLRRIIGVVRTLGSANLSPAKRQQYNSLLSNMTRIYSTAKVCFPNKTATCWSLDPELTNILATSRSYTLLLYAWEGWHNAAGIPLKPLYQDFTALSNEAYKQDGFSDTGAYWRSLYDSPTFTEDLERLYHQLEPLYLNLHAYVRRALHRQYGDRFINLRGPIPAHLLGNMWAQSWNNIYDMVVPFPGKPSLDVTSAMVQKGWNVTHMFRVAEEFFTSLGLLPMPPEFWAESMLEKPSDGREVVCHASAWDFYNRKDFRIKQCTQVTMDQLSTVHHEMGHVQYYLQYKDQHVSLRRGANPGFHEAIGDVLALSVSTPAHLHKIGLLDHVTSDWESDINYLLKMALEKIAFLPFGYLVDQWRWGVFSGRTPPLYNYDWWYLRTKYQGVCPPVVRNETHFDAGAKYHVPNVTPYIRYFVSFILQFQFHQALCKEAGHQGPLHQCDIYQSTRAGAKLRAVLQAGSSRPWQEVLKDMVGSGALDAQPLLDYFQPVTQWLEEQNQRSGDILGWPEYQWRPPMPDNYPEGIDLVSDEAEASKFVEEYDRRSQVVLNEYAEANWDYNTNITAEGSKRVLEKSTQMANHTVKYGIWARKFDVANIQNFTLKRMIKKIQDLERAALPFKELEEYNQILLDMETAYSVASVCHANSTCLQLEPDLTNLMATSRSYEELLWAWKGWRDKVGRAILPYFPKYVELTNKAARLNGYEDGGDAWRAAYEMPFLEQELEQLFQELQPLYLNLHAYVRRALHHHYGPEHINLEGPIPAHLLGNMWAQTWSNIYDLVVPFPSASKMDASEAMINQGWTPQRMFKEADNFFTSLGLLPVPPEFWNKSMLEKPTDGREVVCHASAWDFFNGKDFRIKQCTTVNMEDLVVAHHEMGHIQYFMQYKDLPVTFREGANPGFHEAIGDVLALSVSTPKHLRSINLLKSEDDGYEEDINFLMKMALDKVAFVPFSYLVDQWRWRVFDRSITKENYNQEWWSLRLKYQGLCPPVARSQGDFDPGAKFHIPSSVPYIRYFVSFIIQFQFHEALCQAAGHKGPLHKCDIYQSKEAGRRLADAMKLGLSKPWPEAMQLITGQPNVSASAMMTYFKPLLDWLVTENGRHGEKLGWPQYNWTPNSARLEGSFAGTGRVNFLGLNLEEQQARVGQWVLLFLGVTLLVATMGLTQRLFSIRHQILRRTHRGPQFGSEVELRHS
# Test: biochemical
# [1] = inhibitor 3.125 μM, replicates A-D
# [2] = inhibitor 6.25 μM, replicates A-D
# [3] = inhibitor 12.5 μM, replicates A-D
# [4] = inhibitor 25 μM, replicates A-D
# [5] = inhibitor 50 μM, replicates A-D
# [6] = inhibitor 100 μM, replicates A-D
# [7] = inhibitor 200 μM, replicates A-D
smiles,measurement,setting,value
CC(C)C[C@H](NC(=O)[C@H](C)NC(=O)[C@@H]1CCC(=O)N1)C(=O)N[C@@H](CO)C(=O)N1CCC[C@H]1C(=O)N[C@@H](CC(C)C)C(=O)N1CCC[C@H]1C(=O)N[C@@H](CCC(=O)O)C(=O)N[C@H](C(=O)N1CCC[C@H]1C(=O)N1CCC[C@H]1C(=O)O)C(C)C [Peptide S493],IC50,,20 µM
CC(C)C[C@H](NC(=O)[C@H](C)NC(=O)[C@H](C)NC(=O)CNC(=O)[C@H](C)NC(=O)[C@H](CCC(=O)O)NC(=O)[C@@H](N)CCC(=O)O)C(=O)N[C@@H](CO)C(=O)N1CCC[C@H]1C(=O)N[C@@H](CC(C)C)C(=O)N1CCC[C@H]1C(=O)N[C@@H](CCC(=O)O)C(=O)N[C@H](C(=O)N1CCC[C@H]1C(=O)N1CCC[C@H]1C(=O)O)C(C)C [Peptide S541],IC50,"ACE from pig kidney, determined graphically, read-out: IC50-value (ACE inhibition)",48 µM
same,fluorescence reading (ACE Inhibitor Assay),"inhibitor 0.39 μM, replicates A-D",955811 and 921346 and 917688 and 967573
same,% inhibition (ACE Inhibitor Assay),"inhibitor 0.39 μM, replicates A-D, 0.39 µM",2.03% and 5.58% and 5.96% and 0.82%
same,fluorescence reading (ACE Inhibitor Assay),"inhibitor 0.78125 μM, replicates A-D",907185 and 888487 and 903844 and 943566
same,% inhibition (ACE Inhibitor Assay),"inhibitor 0.78125 μM, replicates A-D, 0.78125 µM",7.04% and 8.96% and 7.38% and 3.3%
same,fluorescence reading (ACE Inhibitor Assay),"inhibitor 1.5625 μM, replicates A-D",904012 and 844202 and 857232 and 946248
same,% inhibition (ACE Inhibitor Assay),"inhibitor 1.5625 μM, replicates A-D, 1.5625 µM",7.36% and 13.52% and 12.18% and 3.02%
same,fluorescence reading (ACE Inhibitor Assay),[1],803411 and 810684 and 810188 and 859457
same,inhibition at 3.125 µM,[1],17.7%
same,% inhibition (ACE Inhibitor Assay),"inhibitor 3.125 μM, replicates A-D, 3.125 µM",16.97% and 17.03% and 11.95%
same,fluorescence reading (ACE Inhibitor Assay),[2],836560 and 809014 and 817520 and 879836
same,inhibition at 6.25 µM,[2],14.3%
same,% inhibition (ACE Inhibitor Assay),"inhibitor 6.25 μM, replicates A-D, 6.25 µM",17.15% and 16.27% and 9.85%
same,fluorescence reading (ACE Inhibitor Assay),[3],788769 and 769930 and 757658 and 781107
same,inhibition at 12.5 µM,[3],21.5%
same,% inhibition (ACE Inhibitor Assay),"inhibitor 12.5 μM, replicates A-D, 12.5 µM",21.17% and 22.44% and 20.02%
same,fluorescence reading (ACE Inhibitor Assay),[4],639406 and 631484 and 614518 and 661658
same,inhibition at 25 µM,[4],34.6%
same,% inhibition (ACE Inhibitor Assay),"inhibitor 25 μM, replicates A-D, 25 µM",35.43% and 37.18% and 32.32%
same,fluorescence reading (ACE Inhibitor Assay),[5],480002 and 474783 and 474901 and 490677
same,inhibition at 50 µM,[5],51%
same,% inhibition (ACE Inhibitor Assay),"inhibitor 50 μM, replicates A-D, 50 µM",51.57% and 51.55% and 50.07%
same,fluorescence reading (ACE Inhibitor Assay),[6],346560 and 319033 and 313789 and 351975
same,inhibition at 100 µM,[6],64.8%
same,% inhibition (ACE Inhibitor Assay),"inhibitor 100 μM, replicates A-D, 100 µM",67.6% and 68.17% and 64.21%
same,fluorescence reading (ACE Inhibitor Assay),[7],208164 and 201991 and 204112 and 215674
same,inhibition at 200 µM,[7],79%
same,% inhibition (ACE Inhibitor Assay),"inhibitor 200 μM, replicates A-D, 200 µM",79.86% and 79.44% and 78.25%
CC(C)[C@H](NC(=O)[C@H](CC(N)=O)NC(=O)[C@H](CCC(=O)O)NC(=O)[C@H](CC(=O)O)NC(=O)[C@H](CO)NC(=O)[C@H](C)NC(=O)[C@H](CCCNC(=N)N)NC(=O)[C@@H]1CCCN1)C(=O)N1CCC[C@H]1C(=O)N1CCC[C@H]1C(=O)O [Peptide S683],IC50,,65 µM
